# Reference: patent US9067926B2, “Fluoromethyl-5,6-dihydro-4H-[1,3]OXAZINES” (F. Hoffmann-La Roche AG, priority 2012, dated 2015)
# By UniProt entry, the sequences of proteins in these tests, tags left out. Residues count along the entry.
# UniProt P56817, 46-501: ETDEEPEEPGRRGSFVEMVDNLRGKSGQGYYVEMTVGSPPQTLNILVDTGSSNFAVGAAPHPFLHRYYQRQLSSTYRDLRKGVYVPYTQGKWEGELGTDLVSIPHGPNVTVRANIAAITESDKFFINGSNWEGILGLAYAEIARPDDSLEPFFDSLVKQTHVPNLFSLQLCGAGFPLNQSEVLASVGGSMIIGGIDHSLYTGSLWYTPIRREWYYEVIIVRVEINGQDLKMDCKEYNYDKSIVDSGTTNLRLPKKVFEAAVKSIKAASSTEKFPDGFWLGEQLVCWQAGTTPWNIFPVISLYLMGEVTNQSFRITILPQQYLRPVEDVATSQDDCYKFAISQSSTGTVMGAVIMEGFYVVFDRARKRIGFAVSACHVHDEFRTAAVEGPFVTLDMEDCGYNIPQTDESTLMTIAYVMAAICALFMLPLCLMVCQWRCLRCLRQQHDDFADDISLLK
# Biological target: T1, BACE1 (Homo sapiens, UniProt P56817)
# T1 construct: endogenous in cells; host or cells: HEK293 APP cells
# Assay: Cellular Aβ-lowering assay (Abeta 40 AlphaLISA)
# Type: cell-based
# Details: HEK293 APP cells, 18-20 hrs incubation, Aβ 40 in culture supernatant; read-out: BACE1 cell act. Aβ40 IC50
# Description: Cellular Aβ-Lowering Assay:
# The Abeta 40 AlphaLISA Assay can be used. The HEK293 APP cells were seeded in 96 well Microtiter plates in cell culture medium (Iscove's, plus 10% (vv) fetal bovine serum, penicillinstreptomycin) to about 80% confluency and the compounds were added at a 3× concentration in 13 volume of culture medium (final DMSO concentration was kept at 1% vv). After 18-20 hrs incubation at 37° C. and 5% CO2 in a humidified incubator, the culture supernatants were harvested for the determination of Aβ 40 concentrations using Perkin-Elmer Human Amyloid beta 1-40 (high specificity) Kit (Cat# AL275C).
# Levels of Aβ 40 in the culture supernatants were calculated as percentage of maximum signal (cells treated with 1% DMSO without inhibitor). The IC50 values were calculated using the Excel XLfit software.
row,IC50 [nM],Compound
1,15,"NC1=N[C@](CF)(c2cc(NC(=O)c3ncc(Cl)cc3Cl)ccc2F)C[C@@H](C(F)(F)F)O1 [Example 29, N-(3-((4S,6S)-2-Amino-4-(fluoromethyl)-6-(trifluoromethyl)-5,6-dihydro-4H-1,3-oxazin-4-yl)-4-fluorophenyl)-3,5-dichloropicolinamide]"
2,11,"COc1ccc(C(=O)Nc2ccc(F)c([C@]3(CF)C[C@@H](C(F)(F)F)OC(N)=N3)c2)nc1 [Example 30, N-(3-((4S,6S)-2-Amino-4-(fluoromethyl)-6-(trifluoromethyl)-5,6-dihydro-4H-1,3-oxazin-4-yl)-4-fluorophenyl)-5-methoxypicolinamide]"
3,31,"COc1cnc(C(=O)Nc2ccc(F)c([C@]3(CF)C[C@@H](C(F)(F)F)OC(N)=N3)c2)cn1 [Example 36, N-(3-((4S,6S)-2-Amino-4-(fluoromethyl)-6-(trifluoromethyl)-5,6-dihydro-4H-1,3-oxazin-4-yl)-4-fluorophenyl)-5-methoxypyrazine-2-carboxamide]"
